This passage reports EC50 results from patent publication US20090137554A1, “1,4,5,6-TETRAHYDRO -PYRROLO[2,3-d]AZEPINES AND -IMIDAZO[4,5-d]AZEPINES AS MODULATORS OF NUCLEAR RECEPTOR ACTIVITY” (Wyeth, priority 2007, published 2009).

In this experiment the target is T1, Gal4/hFXR fusion protein (Homo sapiens, UniProt Q96RI1).
T1 sequence (Q96RI1 262-486 limits assumed): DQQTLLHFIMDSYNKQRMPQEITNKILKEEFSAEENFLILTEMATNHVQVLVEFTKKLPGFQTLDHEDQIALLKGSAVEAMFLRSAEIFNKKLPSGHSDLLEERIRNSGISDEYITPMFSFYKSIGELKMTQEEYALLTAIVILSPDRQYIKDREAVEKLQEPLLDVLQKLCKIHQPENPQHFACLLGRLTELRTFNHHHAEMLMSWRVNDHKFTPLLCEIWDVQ
Nature of the experiment: Gal4/hFXR fusion protein agonist activity in human 293 cells (luciferase reporter). The conditions noted are these: Human 293 stable clone 2 expressing Gal4/hFXR, 24 hours incubation. The class given is cell-based. As to the method: Characterization of Compounds for Gal4/hFXR Fusion Protein Agonist Activity in Human 293 Cells
• 1. Compounds to be tested are prepared as 2× stocks in assay medium. • 2. […] The supernatant is removed and the cells are resuspended in 1 ml assay medium. The cells are counted and diluted in assay medium to 200,000 cells per ml. The cells are then plated at 10,000 cells per well in Culturplate-96 plates in 50 μL assay medium. The cells are incubated at 37° C. for approximately 1 hour. • 3. […] All assays include 1 uM GW4064 as a reference standard. • 4. Cells are incubated for 24 hours at 37° C.
• 5. The medium is removed, and the cells are lysed in 25 uL lysis buffer (Promega, E3971). • 6. The plates are analyzed for luciferase activity with luciferase assay reagent (Promega E1483). Plates are read on Victor^3V instrument using the protocol “Shuguang Luciferase assay” (dispense volume=100 uL, plate type=“Packard Viewplate”, measurement height=8 mm from bottom of plate, 5 second read per well).
• 1. For agonist single point screening, data are analyzed in Excel. Each compound is tested in triplicate. The fold stimulation of each compound is calculated as RLUcpd/RLUbkgd. • 2. Comparison to GW4064 is made by the equation (RLUcpd/RLUbkgd)/(RLUGW4064/RLUbkgd) • 3. For agonist potency determinations, statistical analysis of the data is performed using a customized Excel/SAS program.

The term EC50 denotes the concentration giving half of the maximal effect. Higher therefore signals a need for much substance. The molecule `CC(C)OC(=O)C1=CN(C(=O)C2CCCCC2)CC(C)(C)c2cc(C#N)[nH]c21` [Example 2, iso-Propyl 2-cyano-6-(cyclohexylcarbonyl)-4,4-dimethyl-1,4,5,6-tetrahydropyrrolo[2,3-d]azepine-8-carboxylate] had an EC50 of 7 nM. The same measure for `CC(C)OC(=O)C1=CN(C(=O)c2ccc(C#N)cc2)CC(C)(C)c2cc(C#N)[nH]c21` [Example 5, iso-Propyl 2-cyano-6-(4-cyanobenzoyl)-4,4-dimethyl-1,4,5,6-tetrahydropyrrolo[2,3-d]azepine-8-carboxylate]: 42 nM; for `CC(C)OC(=O)C1=CN(C(=O)c2cccc(Cl)c2)CC(C)(C)c2cc(C#N)[nH]c21` [Example 6, iso-Propyl 6-(3-chlorobenzoyl)-2-cyano-4,4-dimethyl-1,4,5,6-tetrahydropyrrolo[2,3-d]azepine-8-carboxylate]: 13 nM.
